Laboratory results from PubChem BioAssay AID1085 (Emory University Molecular Libraries Screening Center, 2008).
The entries are a selection whose mix differs from that of the whole data set. Some tests of the compounds listed are not included; inactive here does not mean inactive elsewhere. Calls of active or inactive are those of the source. Rule as the data show it: active = inhibition above about 50%; inactive = the rest.

The chains behind the UniProt entries cited, without tags or fusion partners.
UniProt Q1HVG2, whole entry: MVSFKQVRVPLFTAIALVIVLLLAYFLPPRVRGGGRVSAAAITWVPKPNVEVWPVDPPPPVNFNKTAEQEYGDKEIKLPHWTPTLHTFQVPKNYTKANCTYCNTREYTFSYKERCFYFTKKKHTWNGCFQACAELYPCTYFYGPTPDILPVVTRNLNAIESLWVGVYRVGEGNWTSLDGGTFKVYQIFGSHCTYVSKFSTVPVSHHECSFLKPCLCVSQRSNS

What follows are molecules tested against Glycoprotein 42 (Epstein-Barr virus (strain AG876)) (UniProt Q1HVG2) (assay: EBV glycoprotein 42 binding blockers – biochemical, uHTS, fluorescence polarization, primary screen (AID 1085)). Details: Fluorescence polarization binding assay, mP read-out; hits give high values; tested at 21.74 µM.

Compound	inhibition
O=C(OC1CN2CCC1CC2)C(CO)(c1ccccc1)c1ccccc1 (stereo unspecified)	inactive: -8.62%
CN(C)c1cccc(C(=O)NCC2(N(C)C)CCCCC2)c1	inactive: -9.65%
COc1ccc(Br)c(C(=O)NCC2(N3CCCCC3)CCCCC2)c1	inactive: -17.6%
COc1cccc(C(=O)NCC2(N3CCCCC3)CCCCC2)c1	inactive: -13.1%
CN(C)C1CCCC1OC(=O)C(O)(c1ccccc1)c1ccccc1 (stereo unspecified)	inactive: -12.1%
Cc1ccccc1C(=O)NCC1(N2CCCCC2)CCCCC1	inactive: -8.48%
CCN1CCCC(OC(=O)C2(O)c3ccccc3C=Cc3ccccc32)C1 (stereo unspecified)	inactive: -13.5%
C=CCN1CCN(CCOC(=O)C(O)(c2ccccc2)c2ccccc2)CC1	inactive: -7.05%
O=C(NCC1(N2CCCCC2)CCCCC1)c1cc([N+](=O)[O-])ccc1Cl	inactive: -13.8%
CCN(CC)CC(C)C(C)OC(=O)C(O)(c1ccccc1)c1ccccc1 (stereo unspecified)	inactive: -20.9%
CC(C)N1C(=O)CC2(CCN(CCOC(=O)C(O)(c3ccccc3)c3ccccc3)CC2)C1=O	inactive: -3.6%
